In this assay the target is norepinephrine uptake (Rattus norvegicus, UniProt Q9WTR4). The experiment in a line: Synaptosomal uptake of ³H-norepinephrine in rat cerebral cortex synaptosomes. As to conditions: read-out: IC₅₀ NE Uptake; Cortical synaptosomes, 50 nM ³H-NE, 37°C for 5 minutes; IC₅₀ by linear regression analysis.

Chains of the proteins cited; added tags and fusions are not shown. Residues count along the entry.
UniProt Q9WTR4, 1-597: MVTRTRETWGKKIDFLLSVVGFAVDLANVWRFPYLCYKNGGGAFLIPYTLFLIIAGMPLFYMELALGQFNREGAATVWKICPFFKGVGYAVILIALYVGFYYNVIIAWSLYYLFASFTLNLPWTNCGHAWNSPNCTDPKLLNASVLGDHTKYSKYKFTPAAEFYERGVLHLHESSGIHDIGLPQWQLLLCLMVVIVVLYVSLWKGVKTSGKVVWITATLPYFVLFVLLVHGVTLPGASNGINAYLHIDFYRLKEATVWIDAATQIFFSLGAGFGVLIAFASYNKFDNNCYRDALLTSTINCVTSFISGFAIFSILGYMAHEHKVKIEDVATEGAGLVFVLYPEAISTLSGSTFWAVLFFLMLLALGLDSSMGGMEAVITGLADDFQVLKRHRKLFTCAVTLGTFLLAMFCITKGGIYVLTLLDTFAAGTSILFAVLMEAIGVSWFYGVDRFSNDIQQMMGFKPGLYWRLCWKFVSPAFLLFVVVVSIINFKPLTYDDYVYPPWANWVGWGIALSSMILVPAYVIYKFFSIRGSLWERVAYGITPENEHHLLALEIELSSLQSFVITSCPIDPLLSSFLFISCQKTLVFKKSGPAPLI

As for `CNCCC(Oc1ccccc1SC)c1ccccc1` (stereo not shown), the IC50 was found to be 4.4 nM.

(Values after EP0591581B1, “N-Alkyl-3-phenyl-3-(2-alkylthiophenoxy)propylamines” (dated 1994).)
